Arr AP2 block = human beta-arrestin and AP2 interaction inhibition | FITC-arrestin peptide / GST-AP2 beads, flow cytometry; AP2 beta2 appendage carries R879A mutation | inhibition, % at 10 µM | 0.31% of 340,000 active;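 active means inhibition above a set limit, near 3 SD of compounds lacking own fluorescence, cut at about 54% in these data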
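System: GST-AP2 R879A glutathione beads; medium: PBS, Tween 20 0.05%, BSA 0.1%; reagent: fluorescein-tagged arrestin peptide at 50 nM final; schedule: pre-incubation 12 min, peptide binding 1 h, room temperature; detection: flow cytometry, FL1 (488/535 nm); read-out: inhibition as reduced fluorescein signal on beads, percent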
UUG fidelity = alters start codon recognition fidelity in yeast. S. cerevisiae UUG-firefly luciferase reporter, luminescence/redox ratio. AID 602363. activity score, % at 18.7 µM. hit rate 0.13% among 350,000;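 active = replicate mean at a twofold rise or more, about +100% in these data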;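 note: firefly luciferase made from a UUG start codon reports start codon fidelity; reporter light over untreated wells divided by growth signal over untreated wells; some hits fall short of that in this replicate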
TbMetRS inhib = blocks T. brucei methionyl-tRNA synthetase activity. purified T. brucei MetRS, ATP depletion, Kinase-Glo luminescence. inhibition, % at 11.9 µM. 0.4% of 360,000 active. AID 624268;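 active means inhibition above a per-plate cutoff of the control wells' mean inhibition plus 3 SD, cut at about 5.5% in these data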
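Dosing: 11.9 µM single point; system: parasite MetRS enzyme; technique: luminescence of leftover ATP; times: 15 min enzyme-compound preincubation, 2 h reaction, 10 min detection, 25 °C; replicates: each compound tested once; read-out basis: percent inhibition relative to median high and low control wells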
Pemphigus Ab inh = blocks pemphigus antibody binding to human desmoglein-3. 0.48% of 310,000 active. P32926. DSG3-coupled beads, scFv-anti-DSG3-GFP binding, flow cytometry; hits give low values. binding (percent of control), % at 10 µM;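 active means binding more than 3 SD below its plate's average and above zero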;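 further: hits lower antibody fragment binding to DSG3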
Rce1 inhib = blocks yeast Ras-converting enzyme | Q03530 | yeast membranes, quenched prenylated peptide cleavage fluorescence | calls only | 0.27% of 290,000 active | AID 2563;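 active means fall in fluorescence gain of 50% or more versus controls, with final raw signal at or below 3038400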
A number is an active result. Hits are enriched below; roughly 1.2% of the tested compounds scored in any of these assays.

Screening Cc1ccc(Nc2nc(-c3ccc(S(=O)(=O)N4CCCC4)cc3)cs2)cc1C returned Arr AP2 block inactive, TbMetRS inhib inactive and Rce1 inhib inactive.
For COc1ccc(CN(CC2CCCO2)S(=O)(=O)c2ccc(-n3cnnn3)c(OC)c2)cc1 (stereo not given) the results were Arr AP2 block inactive, TbMetRS inhib inactive, Pemphigus Ab inh inactive and Rce1 inhib inactive.
COc1ccc(CN(C2CCCC2)S(=O)(=O)c2ccc(-n3cnnn3)c(OC)c2)cc1OC was read as Arr AP2 block inactive, UUG fidelity inactive, TbMetRS inhib inactive, Pemphigus Ab inh inactive and Rce1 inhib active.
`COc1ccc(-c2oc3ccc(N4CCOCC4)cc3c2C#Cc2ccc(N)cc2)cc1` gave Arr AP2 block inactive, UUG fidelity inactive, TbMetRS inhib inactive, Pemphigus Ab inh inactive and Rce1 inhib active.
COc1ccc(C#Cc2c(-c3ccsc3)oc3ccc(N4CCOCC4)cc23)cc1 was read as Arr AP2 block inactive, UUG fidelity inactive, TbMetRS inhib inactive, Pemphigus Ab inh inactive and Rce1 inhib inactive.
Screening O=C(O)c1ccccc1NS(=O)(=O)c1cccc(-n2sc3ccccc3c2=O)c1 returned Arr AP2 block inactive, UUG fidelity inactive, TbMetRS inhib inactive, Pemphigus Ab inh 46 and Rce1 inhib inactive.
Screening COc1ccc(C(=O)Nn2c(C)nc3ccccc3c2=O)cc1Br returned Arr AP2 block inactive, TbMetRS inhib inactive, Pemphigus Ab inh 72 and Rce1 inhib inactive.
Screening C[C@H]1CN([C@@H](C)CO)S(=O)(=O)c2ccc(C#CC3(O)CCCC3)cc2O[C@H]1CN(C)C(=O)Cc1ccncc1 returned UUG fidelity inactive.
For CC(=O)Nc1cccc(NC(=O)/C=C/c2ccc(S(=O)(=O)N3CCOCC3)cc2)c1 the results were Arr AP2 block inactive, TbMetRS inhib inactive and Pemphigus Ab inh inactive.
`COc1cccc(NC(=O)/C=C/c2ccc(S(=O)(=O)N3CCOCC3)cc2)c1` gave Arr AP2 block inactive, UUG fidelity inactive, TbMetRS inhib inactive and Pemphigus Ab inh 73.
`O=C(C[C@@H]1CC[C@@H](NC(=O)Nc2cc(F)ccc2F)[C@@H](CO)O1)Nc1ccc(-c2ccccc2)cc1` gave UUG fidelity inactive.
For CCCOc1ccc(-c2cn3ccccc3n2)cc1[N+](=O)[O-] the results were Arr AP2 block inactive, TbMetRS inhib inactive, Pemphigus Ab inh inactive and Rce1 inhib inactive.
Screening COc1ccc(-c2cn3ccccc3n2)cc1[N+](=O)[O-] returned Arr AP2 block inactive, TbMetRS inhib inactive, Pemphigus Ab inh inactive and Rce1 inhib active.
For COc1ccc(-c2cc3ccccc3n2CC(O)CNCCO)cc1 (stereo not given) the results were Arr AP2 block inactive, UUG fidelity inactive, TbMetRS inhib inactive, Pemphigus Ab inh inactive and Rce1 inhib active.
For CN(C)C(=O)C[C@@H]1CC[C@H]2[C@H](COc3ccc(NC(=O)c4cnccn4)cc3C(=O)N2C)O1 the results were UUG fidelity inactive.
For O=C(c1cn(-c2ccccc2)nc1-c1cccs1)N1CCN(c2ccccn2)CC1 the results were Arr AP2 block inactive, UUG fidelity inactive, TbMetRS inhib inactive and Rce1 inhib active.
For CCCN(C)C[C@H]1OCCCC[C@@H](C)Oc2ccc(NC(=O)CCCN(C)C)cc2C(=O)N([C@@H](C)CO)C[C@H]1C the results were UUG fidelity inactive.
`O=C(NCCC1=CCCCC1)C(=O)NCCc1ccc(Cl)cc1` gave Arr AP2 block inactive, UUG fidelity inactive, TbMetRS inhib inactive, Pemphigus Ab inh inactive and Rce1 inhib inactive.
For O=C(NCCC1=CCCCC1)C(=O)NCc1ccncc1 the results were Arr AP2 block inactive, TbMetRS inhib inactive, Pemphigus Ab inh 52 and Rce1 inhib inactive.
Screening C[C@@H]1CN([C@@H](C)CO)C(=O)c2cc(NC(=O)Nc3cccc4ccccc34)ccc2O[C@@H](C)CCCCO[C@@H]1CN(C)Cc1ccc2c(c1)OCO2 returned UUG fidelity inactive.
Screening COC(=O)N/N=C/c1cn(Cc2ccccc2Cl)c2ccccc12 returned Arr AP2 block inactive, TbMetRS inhib inactive, Pemphigus Ab inh inactive and Rce1 inhib active.
`Nc1ccc(C(=O)N/N=C/c2cn(Cc3ccccc3F)c3ccccc23)cc1` gave Arr AP2 block inactive, UUG fidelity inactive, TbMetRS inhib inactive, Pemphigus Ab inh inactive and Rce1 inhib inactive.
`COC(=O)N/N=C/c1cn(Cc2ccc(Cl)cc2Cl)c2ccccc12` gave Arr AP2 block inactive, UUG fidelity inactive, TbMetRS inhib inactive, Pemphigus Ab inh inactive and Rce1 inhib inactive.
For O=C(O)c1ccc(N/N=C/c2cn(Cc3ccccc3F)c3ccccc23)cc1 the results were Arr AP2 block inactive, UUG fidelity inactive, TbMetRS inhib inactive, Pemphigus Ab inh inactive and Rce1 inhib active.
For COC(=O)N/N=C/c1cn(Cc2c(Cl)cccc2Cl)c2ccccc12 the results were Arr AP2 block inactive, TbMetRS inhib inactive, Pemphigus Ab inh 81 and Rce1 inhib inactive.
O=C(N[C@@H]1C=C[C@@H](CC(=O)N2CCc3ccccc3C2)O[C@@H]1CO)C1CCC1 was read as UUG fidelity inactive.
`CN(c1ccc(OCC(=O)OCC(=O)c2c(N)n(C)c(=O)n(C)c2=O)cc1)S(=O)(=O)c1ccc2ccccc2c1` gave Arr AP2 block inactive, TbMetRS inhib inactive, Pemphigus Ab inh 97 and Rce1 inhib inactive.
`COCc1cn(CC[C@H]2CC[C@H](NC(=O)Nc3ccc(OC)cc3)[C@H](CO)O2)nn1` gave UUG fidelity 216.
For Cc1noc(C)c1NC(=O)Nc1ccc2c(c1)CC(=O)N([C@@H](C)CO)C[C@@H](C)[C@@H](CN(C)S(=O)(=O)c1cccs1)O2 the results were UUG fidelity inactive.
`Cc1noc(C)c1S(=O)(=O)N(C)C[C@H]1Oc2c(NC(=O)C3CC3)cccc2C(=O)N([C@H](C)CO)C[C@H]1C` gave UUG fidelity inactive.
Cn1c(=NC(=O)c2ccc(S(=O)(=O)N3CCCc4ccccc43)cc2)sc2cc(S(C)(=O)=O)ccc21 was read as Arr AP2 block inactive, UUG fidelity inactive, TbMetRS inhib inactive, Pemphigus Ab inh inactive and Rce1 inhib inactive.
For Cn1c(=NC(=O)c2ccccc2[N+](=O)[O-])sc2cc(S(C)(=O)=O)ccc21 the results were Arr AP2 block inactive, UUG fidelity inactive, TbMetRS inhib inactive, Pemphigus Ab inh 86 and Rce1 inhib inactive.
Screening C[C@H]1CN([C@@H](C)CO)C(=O)c2cc(C3=CCCCC3)cnc2O[C@H]1CN(C)C(=O)NC1CCCC1 returned UUG fidelity inactive.
CCN(CC)c1ccc(/C=N/NC(=O)C(O)(c2ccccc2)c2ccccc2)o1 was read as Rce1 inhib active.
O=C(O)c1ccc(/C=N/NC(=O)C(O)(c2ccccc2)c2ccccc2)cc1 was read as Arr AP2 block inactive, UUG fidelity inactive, TbMetRS inhib inactive, Pemphigus Ab inh inactive and Rce1 inhib inactive.
For CCC(=O)N[C@@H]1CC[C@@H](CC(=O)NCCN2CCCCC2)O[C@@H]1CO the results were UUG fidelity inactive.
